{
  "source": "patent US20230357447A1",
  "about": "(JANUX THERAPEUTICS, published 2023)",
  "molecular_target": "T1, CD28 antigen (biotinylated, captured on neutravidin coated plates) (UniProt P10747, in part, biotinylated (site not stated))",
  "T1 construct": "also called cognate antigen, CD28",
  "assay": "ELISA: biotinylated CD28 captured on neutravidin plate, antibody titrated, HRP secondary antibody",
  "data": [
    {"binder": "anti-CD28 scFv (SEQ ID NO: 9) (scFv, also called Anti-CD28 scFv (VH-linker 1-VL)) scFv: QVQLVQSGAEVKKPGASVKVSCKASGYTFTSYYIHWVRQAPGQGLEWIGSIYPGNVNTNYNEKFKDRATLTVDTSISTAYMELSRLRSDDTAVYFCTRSHYGLDWNFDVWGQGTTVTVSSGGGGSGGGGSGGGGSDIQMTQSPSSLSASVGDRVTITCHASQNIYVWLNWYQQKPGKAPKLLIYKASNLHTGVPSRFSGSGSGTDFTLTISSLQPEDFATYYCQQGQTYPYTFGGGTKVEIK", "values": [
      {"measurement": "EC50", "result": 1.95, "unit": "nM"}
    ]}
  ]
}
